Assay [1] concerns the target T1, BRG-1 (Homo sapiens, UniProt P51532).
T1 construct: made in house; host or cells: High Five insect cells
Put plainly: ATPase catalytic activity assay (ADP-Glo), BRG-1. As to conditions: read-out: BRG1 Max % Inhibition. It counts as biochemical. As for the experimental part:
The ATPase catalytic activity of BRM or BRG-1 was measured by the in vitro biochemical assay using ADP-Glo™ (Promega, V9102). The ADP-Glo™ kinase assay is performed in two steps once the reaction is complete. The first step is to deplete any unconsumed ATP in the reaction. The second step is to convert the reaction product ADP to ATP, which will be utilized by the luciferase to generate luminesce and be detected by a luminescence reader, such as Envision.
The assay reaction mixture (10 μL) contains 30 nM of BRM or BRG-1, 20 nM salmon sperm DNA (from Invitrogen, UltraPure™ Salmon Sperm DNA Solution, cat #15632011), and 400 μM of ATP in the ATPase assay buffer, which comprises of 20 mM Tris, pH 8, 20 mM MgCl2, 50 mM NaCl, 0.1% Tween-20, and 1 mM fresh DTT (Pierce™ DTT (Dithiothreitol), cat #20290). The reaction is initiated by the addition of the 2.5 μL ATPase solution to 2.5 μL ATP/DNA solution on low volume white Proxiplate-384 plus plate (PerkinElmer,cat #6008280) and incubates at room temperature for 1 hour. […] Finally, luminescence measurement is collected with a plate-reading luminometer, such as Envision.
The ADP-Glo™ kinase assay is performed in two steps once the reaction is complete. […] The second step is to convert the reaction product ADP to ATP, which will be utilized by the luciferase to generate luminesce and be detected by a luminescence reader, such as Envision. […]

By UniProt entry, the sequences of proteins in these tests, tags left out.
UniProt P51532, whole entry: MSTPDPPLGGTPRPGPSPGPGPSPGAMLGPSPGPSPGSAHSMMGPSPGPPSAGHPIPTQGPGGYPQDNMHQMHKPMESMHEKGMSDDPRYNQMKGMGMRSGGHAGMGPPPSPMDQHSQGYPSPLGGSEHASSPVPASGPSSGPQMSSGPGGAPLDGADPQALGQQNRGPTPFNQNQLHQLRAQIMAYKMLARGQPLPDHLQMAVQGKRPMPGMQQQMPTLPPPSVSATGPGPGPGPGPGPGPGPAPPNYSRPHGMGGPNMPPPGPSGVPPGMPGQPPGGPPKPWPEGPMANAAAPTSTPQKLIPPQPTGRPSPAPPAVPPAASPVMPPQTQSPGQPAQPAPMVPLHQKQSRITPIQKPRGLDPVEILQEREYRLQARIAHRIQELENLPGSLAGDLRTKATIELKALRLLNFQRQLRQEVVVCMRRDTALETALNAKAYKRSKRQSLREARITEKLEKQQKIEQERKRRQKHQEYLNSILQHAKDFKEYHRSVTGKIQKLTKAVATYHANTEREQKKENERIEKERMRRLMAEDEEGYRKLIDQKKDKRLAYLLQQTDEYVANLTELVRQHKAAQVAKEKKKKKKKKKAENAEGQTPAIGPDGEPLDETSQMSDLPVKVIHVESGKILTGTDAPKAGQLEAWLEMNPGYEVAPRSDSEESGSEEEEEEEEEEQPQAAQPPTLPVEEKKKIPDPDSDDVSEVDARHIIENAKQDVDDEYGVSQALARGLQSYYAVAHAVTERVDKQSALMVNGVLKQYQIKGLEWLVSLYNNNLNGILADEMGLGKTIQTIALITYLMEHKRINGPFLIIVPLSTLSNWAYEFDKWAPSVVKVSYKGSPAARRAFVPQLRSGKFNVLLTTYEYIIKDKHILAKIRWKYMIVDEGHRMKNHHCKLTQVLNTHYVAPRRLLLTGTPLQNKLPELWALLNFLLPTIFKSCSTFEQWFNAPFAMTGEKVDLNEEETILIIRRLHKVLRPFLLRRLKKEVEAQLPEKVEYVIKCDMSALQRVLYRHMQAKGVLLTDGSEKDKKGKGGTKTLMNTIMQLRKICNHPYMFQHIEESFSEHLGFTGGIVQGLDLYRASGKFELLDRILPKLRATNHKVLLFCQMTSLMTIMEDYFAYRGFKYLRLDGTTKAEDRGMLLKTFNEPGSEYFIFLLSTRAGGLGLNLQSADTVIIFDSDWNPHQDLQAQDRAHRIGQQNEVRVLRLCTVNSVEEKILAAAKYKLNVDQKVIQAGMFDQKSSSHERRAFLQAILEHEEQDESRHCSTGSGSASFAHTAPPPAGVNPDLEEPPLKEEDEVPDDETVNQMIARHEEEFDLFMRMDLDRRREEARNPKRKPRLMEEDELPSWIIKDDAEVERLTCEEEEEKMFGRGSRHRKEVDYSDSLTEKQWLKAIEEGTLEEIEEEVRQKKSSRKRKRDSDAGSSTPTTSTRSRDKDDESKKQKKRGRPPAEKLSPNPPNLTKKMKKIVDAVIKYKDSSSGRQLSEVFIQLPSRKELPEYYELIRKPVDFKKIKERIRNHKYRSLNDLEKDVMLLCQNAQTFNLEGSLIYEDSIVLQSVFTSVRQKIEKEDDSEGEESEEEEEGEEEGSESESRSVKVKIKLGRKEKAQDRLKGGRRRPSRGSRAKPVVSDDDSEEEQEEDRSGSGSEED

Assay [2] relates to Uveal melanoma cell lines, 92-1 or MP41. The experiment in a line: Comparison of BRG1/BRM inhibitor to clinical PKC and MEK inhibitors in uveal melanoma cell lines (Cell-titer glo, 3 days). It counts as cell-based. As to conditions: 0 to 10 micromolar. On the procedure: Procedure: Uveal melanoma cell lines, 92-1 or MP41, were plated in 96 well plates in the presence of growth media (See Table 7). […] Cells were incubated at 37 degrees Celsius for 3 days. After three days of treatment, cell growth was measured with Cell-titer glow (Promega), and luminescence was read on an Envision plate reader (Perkin Elmer).

Take `CC(C)S(=O)(=O)n1cc(C(=O)NCC(=O)Nc2nc(-c3cccc(-c4ccncc4)c3)cs2)c2ccccc21` [Compound 4, 1-(isopropylsulfonyl)-N-(2-oxo-2-((4-(3-(pyridin-4-yl)phenyl)thiazol-2-yl)amino)ethyl)-1H-indole-3-carboxamide]: in assay [1], the Emax is below 30%.

In the case of `CSCC[C@H](NC(=O)c1ccc(N)cc1)C(=O)Nc1nc(-c2cccc(-c3ccncc3)c2)cs1` [Compound A], the “Onset of inhibition relative to clinical PKC and MEK inhibitors” value in assay [2] was “faster onset of inhibition”. Besides, the “Growth inhibition of uveal melanoma cells relative to clinical PKC (LXS196) and MEK (Selumetinib) inhibitors, FIG. 2” value in assay [2] (3 days) is “comparable growth inhibition”.

Values taken from patent US12509453B2, “BRM/BRG1 inhibitors and uses thereof” (Foghorn Therapeutics Inc., priority 2019, dated 2025).
